Experimental data reported in ChEMBL document CHEMBL1145376, “C-8 Modifications of 3-alkyl-1,8-dibenzylxanthines as inhibitors of human cytosolic phosphoenolpyruvate carboxykinase” (Bioorg Med Chem Lett, 2007).

Chains of the proteins cited; added tags and fusions are not shown.
UniProt P35558, whole entry: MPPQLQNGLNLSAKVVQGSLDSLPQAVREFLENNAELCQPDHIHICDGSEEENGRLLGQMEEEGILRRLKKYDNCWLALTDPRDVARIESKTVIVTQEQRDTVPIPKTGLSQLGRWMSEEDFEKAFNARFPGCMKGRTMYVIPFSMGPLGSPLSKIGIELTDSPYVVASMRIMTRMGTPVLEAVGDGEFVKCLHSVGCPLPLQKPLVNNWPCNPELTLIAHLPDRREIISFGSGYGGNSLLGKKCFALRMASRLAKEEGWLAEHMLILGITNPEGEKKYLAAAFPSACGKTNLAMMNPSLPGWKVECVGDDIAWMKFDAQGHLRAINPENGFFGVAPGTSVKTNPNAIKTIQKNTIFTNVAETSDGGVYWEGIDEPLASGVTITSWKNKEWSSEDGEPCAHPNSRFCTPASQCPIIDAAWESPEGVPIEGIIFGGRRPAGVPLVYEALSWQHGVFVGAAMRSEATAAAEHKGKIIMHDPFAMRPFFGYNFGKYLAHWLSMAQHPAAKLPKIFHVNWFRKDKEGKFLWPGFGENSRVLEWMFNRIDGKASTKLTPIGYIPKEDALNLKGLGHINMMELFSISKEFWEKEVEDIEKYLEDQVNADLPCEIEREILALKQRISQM

Biological target: Phosphoenolpyruvate carboxykinase, cytosolic [GTP] (Homo sapiens, UniProt P35558)
Experiment: Inhibition of human cPEPCK

Compound `CCCCn1c(=O)n(Cc2ccccc2F)c(=O)c2[nH]c(Cc3ccc(NS(=O)(=O)c4cn(C)cn4)cc3)nc21` has an IC50 of 630 nM.
